Test results reported in ChEMBL document CHEMBL1156200, “Removal of sphingosine 1-phosphate receptor-3 (S1P(3)) agonism is essential, but inadequate to obtain immunomodulating 2-aminopropane-1,3-diol S1P(1) agonists with reduced effect on heart rate” (J Med Chem, 2010).

By UniProt entry, the sequences of proteins in these tests, tags left out.
UniProt Q99500, whole entry, looked up: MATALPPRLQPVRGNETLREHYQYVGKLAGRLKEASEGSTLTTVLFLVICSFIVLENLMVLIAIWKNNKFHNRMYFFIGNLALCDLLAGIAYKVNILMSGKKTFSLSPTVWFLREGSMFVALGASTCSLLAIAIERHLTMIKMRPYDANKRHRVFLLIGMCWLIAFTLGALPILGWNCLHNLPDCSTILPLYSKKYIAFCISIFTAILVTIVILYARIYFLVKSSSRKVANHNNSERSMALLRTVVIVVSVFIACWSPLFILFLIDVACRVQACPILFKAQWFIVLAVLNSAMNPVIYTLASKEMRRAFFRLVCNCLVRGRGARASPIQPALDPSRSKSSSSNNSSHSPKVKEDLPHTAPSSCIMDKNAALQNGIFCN
UniProt P21453, whole entry, looked up: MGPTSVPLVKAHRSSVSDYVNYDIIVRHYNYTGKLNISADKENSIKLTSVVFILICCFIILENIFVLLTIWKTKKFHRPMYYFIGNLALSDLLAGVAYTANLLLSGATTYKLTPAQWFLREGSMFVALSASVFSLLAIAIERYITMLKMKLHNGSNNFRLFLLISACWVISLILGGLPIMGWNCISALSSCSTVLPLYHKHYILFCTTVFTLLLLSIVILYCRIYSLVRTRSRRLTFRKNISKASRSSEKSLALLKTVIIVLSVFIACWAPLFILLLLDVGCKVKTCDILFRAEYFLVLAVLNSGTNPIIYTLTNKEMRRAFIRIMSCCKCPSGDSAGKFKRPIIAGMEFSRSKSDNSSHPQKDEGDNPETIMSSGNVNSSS

How the values were obtained:
[1] = target: Sphingosine 1-phosphate receptor 3 (Homo sapiens, UniProt Q99500); details: cho
[2] = target: Sphingosine 1-phosphate receptor 1 (Homo sapiens, UniProt P21453); details: chem1

## C=P(O)(O)OCC(N)(CO)CCc1ccc(-c2ccc(SCc3ccccc3)cc2)cc1Cl (configuration not stated)
[1]
  EC50: > 1000 nM
[2]
  EC50: 2.1 nM
